Measurements: patent US9931332B2, “Compositions and methods for treating primary effusion lymphoma” (University of Southern California, priority 2014, dated 2018)

How the values were obtained:
BJAB cells = experiment: Cell viability, MTS assay; assay type: cell-based; conditions: 5 days
Description: (§1) Cells from exponentially growing cultures were plated in untreated flat-bottom 96 well plates at a density of 5×10^3 cells/well, treated with an increasing concentration of the drugs and subsequently assessed for cell viability using the MTS reagent (3-4,5-dimethylthiazol-2yl)-5-(3-carboxy-methoxyphenyl)-2-(4-sulfophenyl)-2H-tetrazolium, inner salt) following the manufacturer's instructions (Promega). Percent cell survival was calculated based on the reading of cells grown in the presence of DMSO control. Experiments were performed in triplicate and have been repeated 2-3 times.

PEL cell lines = experiment: Cell viability, MTS assay; assay type: cell-based
Description: as §1

B1: IFN-β: recombinant interferon β (protein, UniProt P01574 22-187, looked up)
Interferon beta: MSYNLLGFLQRSSNFQCQKLLWQLNGRLEYCLKDRMNFDIPEEIKQLQQFQKEDAALTIYEMLQNIFAIFRQDSSSTGWNETIVENLLANVYHQINHLKTVLEEKLEKEDFTRGKLMSSLHLKRYYGRILHYLKAKEYSHCAWTIVRVEILRNFYFINRLTGYLRN
BJAB cells
  effect of recombinant IFN on BJAB: very little effect
PEL cell lines; 5 days
  sensitivity of BC-3, BCBL-1 and JSC-1 to recombinant IFN: highly sensitive
PEL cell lines; BC-3, BCBL-1, JSC-1, BC-1 and VG-1, 5 days
  sensitivity of the 5 PEL cell lines to recombinant IFN: sensitive
